Results reported in patent US20240092799A1, “MNK INHIBITORS” (Hepagene Therapeutics (HK) Limited, priority 2020, published 2024).
Read-outs that look alike come from different tables or passages of the source.

Amino acid sequences for entries named in this document (tags omitted).
UniProt Q9HBH9, whole entry: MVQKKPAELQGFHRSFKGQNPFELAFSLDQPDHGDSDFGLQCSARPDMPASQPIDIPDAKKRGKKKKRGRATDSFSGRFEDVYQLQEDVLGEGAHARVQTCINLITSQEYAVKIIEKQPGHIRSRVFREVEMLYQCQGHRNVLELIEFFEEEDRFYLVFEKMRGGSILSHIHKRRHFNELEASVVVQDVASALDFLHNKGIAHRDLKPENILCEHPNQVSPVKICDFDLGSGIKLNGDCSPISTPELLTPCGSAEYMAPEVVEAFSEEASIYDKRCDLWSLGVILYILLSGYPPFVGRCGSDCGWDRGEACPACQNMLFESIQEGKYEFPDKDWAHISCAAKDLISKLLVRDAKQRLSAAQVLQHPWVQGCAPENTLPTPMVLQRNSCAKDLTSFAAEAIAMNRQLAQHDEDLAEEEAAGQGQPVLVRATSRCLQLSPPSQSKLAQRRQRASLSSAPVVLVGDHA

Assays:
TMD-8 cell p-IF4E = experiment: p-eIF4E Signaling Cellular Assay (CisBio HTRF) in TMD-8 cells; details: read-out: TMD-8 cell p-IF4E IC50, 40 min treatment, tested form: formate
Experimental: p-eIF4E Signaling Cellular Assay. Phosphorylated eIF4E is assayed using the CisBio p-Eif4E HTRF assay kit. Reagents and equipment used in the assay are listed below, followed by the protocol.
Cell medium: RPMI 1640+10% FBS+1*PS, TMD-8 were cultured as recommended and assayed in exponential growth phase. • a) Plate 30 μL of cells in 384 white assay plate in appropriate medium and proper cell density (20 k/well) based on Optimization at 37° C. under 5% CO2 atmosphere • b) Dispense 90 nL of compounds diluted in DMSO and treat for 40 min at 37° C. under 5% CO2 atmosphere • c) Remove cell supernatant by flicking the plate • d) Add 16 μL of supplemented lysis buffer (1×) for 30 minutes at RT under shaking • e) Add 4 μL of premixed antibody solutions prepared in the detection buffer. Cover the plate with a plate sealer. Incubate 0/N at RT • f) Read the fluorescence emission at 665 nm and 620 nm on Envision • g) Data analysis • (1) Ratio […] signal is calculated for each well • (2) % Inhibition is calculated as follow:
% inhibition=100−(Signalcmpd-SignalAve_PC)/(SignalAve_VC-SignalAve_PC)×100. • (3) Calculate IC50 and Plot effect-dose curve of cmpds:
Calculate IC50 by fitting % Inhibition values and log of compound concentrations to nonlinear regression (dose response−variable slope) with Graphpad 8.0. […]

MNK2 = MNK2 (Homo sapiens (Human), UniProt Q9HBH9); experiment: MNK Biochemical Enzymatic Assay (ADP-Glo), MNK2 binding assay
Experimental: MNK Biochemical Enzymatic Assay. This protocol establishes the binding assays for MNK1 and MNK2 using ADP-Glo assay. MNK phosphorylates the substrate and converts ATP to ADP, which was detected by Envision and used to reflect the reminding activity of MNK. Reagents and equipment used in the assay are listed below, followed by the protocol.
• a) Add 50 μL compound to 384-well dilution plate • b) Dilute compound 1:3 in succession in DMSO for each column for 10+0 pts (refer to dilution plate map) • c) Transfer 0.1 μL diluted compound solution in each row to 384 assay plate using Echo, each column containing 2 replicates (refer to assay plate map) • d) Add 5 μL enzyme working solution to 384-well assay plate, centrifuge 1000 RPM for 1 min • e) Incubate at 25° C. for 15 min • f) Add 5 μL substrate working solution to initiate reaction • g) Incubate at 25° C. for 60 min • h) Add 10 μL ADP Glo reagent, centrifuge 1000 RPM for 1 min • i) Incubate at 25° C. for 60 min • j) Add 20 μL kinase detection reagent, centrifuge 1000 RPM for 1 min • k) Incubate at 25° C. for 60 min • l) Read on Envision for US LUM as RLU • m) Data analysis: IC50s were determined based on a non-linear regression analysis of data collected.

For `Cc1cc(Nc2cc(Nc3ccc(C4CCN(C)CC4)cn3)ncn2)[n+]([O-])c2c1C(=O)NC21CCCCC1`, the IC50 (TMD-8 cell p-IF4E) was 0.1 to 10 nM and the IC50 (MNK2; read-out: MNK2 binding assay IC50, tested form: formate) was 0.1 to 10 nM.
With `COc1c(Nc2cc(C)c3c([n+]2[O-])C2(CCCCC2)NC3=O)ncnc1N[C@H]1CCOC1` the IC50 (MNK2; read-out: MNK2 binding assay IC50) was 100 to 1000 nM.
